The values below are quoted from earlier work in patent US6787147B1, “Solar radiation protection composition” (priority 1998, dated 2004).

For the data set the following is noted: scytonemin: in vivo.

scytonemin: the absorption maximum is reported as 370 nm.
